Reference: publication doi:10.1101/2024.03.15.584944 (bioRxiv, 2024)

Target: T1, Zymogen rMASP-3 (human, UniProt P48740-2 20-728, RED-tris-NTA dye on the His tag (in the MST only))
T1 sequence (looked up): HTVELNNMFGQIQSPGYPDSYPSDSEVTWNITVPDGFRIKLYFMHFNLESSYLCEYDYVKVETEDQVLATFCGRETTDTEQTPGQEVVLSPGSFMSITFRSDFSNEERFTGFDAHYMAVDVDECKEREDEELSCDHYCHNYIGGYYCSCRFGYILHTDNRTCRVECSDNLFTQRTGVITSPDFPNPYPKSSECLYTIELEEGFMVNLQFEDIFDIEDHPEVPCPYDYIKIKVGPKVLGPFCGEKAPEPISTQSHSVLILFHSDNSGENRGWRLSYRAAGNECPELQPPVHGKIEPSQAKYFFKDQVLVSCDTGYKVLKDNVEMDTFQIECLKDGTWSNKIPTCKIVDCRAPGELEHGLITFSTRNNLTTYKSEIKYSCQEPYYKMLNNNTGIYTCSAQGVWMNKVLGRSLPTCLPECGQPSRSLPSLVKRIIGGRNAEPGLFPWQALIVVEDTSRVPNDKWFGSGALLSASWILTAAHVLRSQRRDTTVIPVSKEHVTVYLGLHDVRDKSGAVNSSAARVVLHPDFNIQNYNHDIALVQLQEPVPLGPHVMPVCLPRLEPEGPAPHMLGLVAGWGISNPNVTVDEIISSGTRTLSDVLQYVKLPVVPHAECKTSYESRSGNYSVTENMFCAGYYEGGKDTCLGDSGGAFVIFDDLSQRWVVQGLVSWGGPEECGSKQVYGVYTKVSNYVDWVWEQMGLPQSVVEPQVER
Test: MST

B1: rMBL (natural protein, UniProt P11226 21-248, looked up)
chain: ETVTCEDAQKTCPAVIACSSPGINGFPGKDGRDGTKGEKGEPGQGLRGLQGPPGKLGPPGNPGPSGSPGPKGQKGDPGKSPDGDSSLAASERKALQTEMARIKKWLTFSLGKQVGNKFFLTNGEIMTFEKVKALCVKFQASVATPRNAAENGAIQNLIKEEAFLGITDEKTEGQFVDLTGNRLTYTNWNEGEPNNAGSDEDCVLLLKNGQWNDVPCSTSHLAVCEFPI
Work on B1 yielded a Kd of 1.79 nM.
